{
  "source": "paper PMC5723147",
  "about": "“Effective Antimicrobial Activity of Plectasin-Derived Antimicrobial Peptides against Staphylococcus aureus Infection in Mammary Glands” (Frontiers in Microbiology, 2017)",
  "key": {"S. aureus E48 [1]": {"test_system": "S. aureus E48", "assay": "Bactericidal activity in bovine UHT whole milk", "format": "cell-based, Staphylococcus aureus", "conditions": "100 μg/mL, 37°C", "method": "The activities of antimicrobial agents on S. aureus in bovine milk were determined in commercial whole-fat ultra-high-temperature-sterilized (UHT) milk as described by [Schmelcher et al. (2012)]. UHT milk (Inner Mongolia Yili Industrial Group Co., Ltd.) at 37°C was inoculated with 5 × 10^5 CFU/mL of exponentially growing cultures of S. aureus E48 in the presence of antimicrobial agents (100 μg/mL) or PBS buffer (negative control). The mixture was incubated without shaking. Samples were taken at 0, 2, 3, and 4 h after inoculation, and serially diluted in sterile PBS, plated onto TSA plates to count colonies after incubated at 37°C for 24 h. The absence of S. aureus E48 in non-inoculated UHT milk was verified by direct plating. Three independent assays were carried out on separate days."}, "[2]": {"test_system": "internalized S. aureus E48 in MAC-T cells", "assay": "Intracellular activity in cultured mammary epithelial cells", "format": "cell-based, Staphylococcus aureus", "conditions": "100 μg/mL, 24 h exposure, change in Log10 CFU/well versus initial", "method": "(§1) An established bovine mammary epithelial cell line, designated MAC-T, which has been used for S. aureus internalization assays ([Hensen et al., 2000]; [Bouchard et al., 2013]), was used for this experiment. The MAC-T cell was cultured in cell culture dishes in the Dulbecco’s modified eagle medium (DMEM) containing 100 U/mL penicillin, 100 μg/mL streptomycin, and 10% heat-inactivated fetal calf serum. MAC-T cells were incubated in a humidified incubator at 37°C with 5% CO2. After the cells were cultured to a confluent monolayer, the trypsin + EDTA solution (0.1%/0.04%) was added. The MAC-T cells were suspended in fresh medium at a concentration of 2 × 10^5 cells/mL and cells were then seeded in 24-well plates (1 × 10^5 cells/well) and incubated overnight at 37°C in 5% CO2 to obtain a confluent monolayer for the internalization assay.\nThe intracellular activities of AMPs were performed as previously described ([Peyrusson et al., 2015]) with minor modifications. Bacteria (1 × 10^7 CFU) were added to mammary epithelial cell cultures at a bacterium-to-epithelial cell ratio of 100:1. After 1 h, extracellular bacteria were removed by thorough washing and gentamicin. Washing was performed by rinsing a well with PBS 10 times. […] The number of intracellular bacteria was determined. […]"}, "[3]": {"test_system": "S. aureus E48 in mammary glands", "assay": "Mouse model of S. aureus-induced mastitis", "format": "in vivo, BALB/c mice", "conditions": "100 μg intramammary 45 min after ~10^4 CFU inoculation, 24 h after inoculation", "method": "The animal protocols used in this work were approved by Institutional Animal Care and Use Committee of Northwest A&F University. The 6- to 8-week-old specific-pathogen-free BALB/c mice were purchased from the Experimental Animal Center of the Medical College of Xi’an Jiao Tong University. […] The lactating mice were challenged with S. aureus E48 as described earlier ([Schmelcher et al., 2015]). The pentobarbital sodium (1.4 mg/20 g bodyweight) was used for anesthesia of the lactating mice by intraperitoneal injection. The distal end of the teat L4 (on the left) and R4 (on the right) was removed (snipped) by a small cut. These L4 and R4 glands constitute the fourth pair found from head to tail. For all groups except for the snipped only group, glands were injected with approximately 10^4 CFU S. aureus in 50 μL PBS. At 45 min after S. aureus inoculation, the challenged glands were injected with 100 μg AMPs in 20 μL or 20 μL of PBS, depending on the treatment. The mice were euthanized 24 h after the S. aureus inoculation, and mammary glands were aseptically collected and weighed. Five mice (10 mammary glands) were used for each group. Seven mammary glands from each treatment were sampled and homogenized in PBS (100 mg/200 μL). Serial dilution plating on Baird-Parker agar plates was done to determine intramammary S. aureus. […]"}, "[4]": {"test_system": "intracellular S. aureus in the human THP-1 monocytes", "conditions": "ref Brinch et al., 2010; cited from earlier work", "text": "(§2) Antimicrobial peptides (AMPs) are a new class of antimicrobial agents with a new mode of action and appear as one of the most promising antimicrobial medicines ([Hancock and Sahl, 2006]). Plectasin with 40 amino acids is a cationic AMP isolated from the saprophytic ascomycete Pseudoplectania nigrella and has a potent activity against gram-positive bacteria ([Mygind et al., 2005]). Most AMPs have been thought to target the bacterial cell membrane."}, "Staphylococci": {"test_system": "Staphylococci", "conditions": "susceptibility testing; ref Zhang et al., 2014; cited from earlier work", "text": "as §2"}, "[5]": {"test_system": "Staphylococcus aureus E48", "format": "cell-based", "conditions": "Mueller-Hinton broth, 5 × 10^5 CFU/mL, 37°C, 16-20 h, three replicates", "method": "Staphylococcus aureus E48, a clinical mastitis isolate, had been used to induce mouse mastitis model ([Wang et al., 2017]). […] It was used as a positive control in this study and was purchased from Sigma–Aldrich. The AMPs were prepared according to a previously described protocol ([Zhang et al., 2015]). The minimum inhibitory concentrations (MICs) were used to evaluate the antibacterial activities of antimicrobial agents ([Wiegand et al., 2008]). Briefly, S. aureus were grown to the log-phase at 37°C in the Mueller–Hinton broth, and diluted to 5 × 10^5 CFU/mL with the fresh medium. A total of 180 μL of cell suspension and 20 μL of serially twofold diluted peptide were added to each well, and the plates were incubated at 37°C for 16–20 h. The final concentration of antimicrobial agents was prepared with gradients of 64, 32, 16, 8, 4, 2, 1, 0.5, 0.25, 0.125, and 0.0625 μg/mL. Three replicates were examined for each concentration. The MICs refer to the lowest concentration where no growth was visible after 16–20 h of incubation."}, "S. aureus E48 [6]": {"test_system": "S. aureus E48", "assay": "Time-kill kinetics in TSB culture medium", "format": "cell-based, Staphylococcus aureus", "conditions": "37°C, 24 h", "method": "S. aureus E48 at the concentration of 5 × 10^5 CFU/mL in fresh TSB medium was added to a flask, together with antimicrobial agents at concentrations of 0.5, 1, or 5 × MIC. The mixture was cultured at 37°C with shaking for 24 h. At 0, 2, 4, 8, 12, and 24 h of incubation, 100 μL sample was taken from each flask, serially diluted in sterile phosphate-buffered saline (PBS), plated onto tryptic soy agar (TSA) plates to count colonies after incubated at 37°C for 24 h. The experiments were repeated three times."}, "[7]": {"test_system": "MAC-T bovine mammary epithelial cells", "assay": "Mammary epithelial cell viability (CCK-8)", "format": "cell-based", "conditions": "100 μg/mL, CCK-8, versus negative control, data not shown", "method": "as §1, with “The” for “An established bovine mammary epithelial cell line, designated MAC-T, which has been used for S. aureus internalization assays ([Hensen et al., 2000]; [Bouchard et al., 2013]), was used for this experiment. The”"}},
  "data": [
    {"molecule": "CC[C@H](C)[C@@H]1NC(=O)[C@H](CO)NC(=O)[C@H](CCCCN)NC(=O)[C@@H]2CSSC[C@@H](C(=O)N[C@@H](Cc3ccc(O)cc3)C(=O)O)NC(=O)[C@H](CCCCN)NC(=O)[C@@H]3CSSC[C@H](NC(=O)[C@H](CCCNC(=N)N)NC(=O)[C@H](CC(C)C)NC(=O)[C@H](CC(=O)O)NC(=O)[C@H](CC(=O)O)NC(=O)[C@H](CCC(=O)O)NC(=O)[C@H](CC(N)=O)NC(=O)[C@H](Cc4c[nH]c5ccccc45)NC(=O)[C@@H]4CCCN4C(=O)CNC(=O)[C@H](CC(N)=O)NC(=O)[C@@H](NC(=O)CNC(=O)[C@H](Cc4ccccc4)NC(=O)CN)CSSC[C@H](NC(=O)[C@H](Cc4ccc(O)cc4)NC(=O)CNC(=O)CNC(=O)[C@H](CCCCN)NC(=O)[C@H](Cc4ccc(O)cc4)NC(=O)CNC(=O)[C@H](CCCCN)NC1=O)C(=O)N[C@@H](C)C(=O)N[C@@H](CCCCN)C(=O)NCC(=O)NCC(=O)N[C@@H](Cc1ccccc1)C(=O)N[C@@H](C(C)C)C(=O)N3)C(=O)N[C@@H](Cc1c[nH]cn1)C(=O)N[C@@H](CC(N)=O)C(=O)N[C@@H](Cc1c[nH]cn1)C(=O)N2", "note": "[NZ2114]", "values": [
      {"measurement": "Colonies recovered from bovine milk after 4 h", "setting": "S. aureus E48 [1]; 4 h, ~10^5 CFU/mL inoculum", "value": "almost no colonies recovered"},
      {"measurement": "Reduction of the number of S. aureus in processed bovine milk", "setting": "S. aureus E48 [1]; within 4 h", "value": "~100", "unit": "%"},
      {"measurement": "Reduction of internalized S. aureus in bovine mammary epithelial cells", "setting": "[2]", "value": "efficient to reduce the internalized S. aureus"},
      {"measurement": "Reduction of S. aureus numbers in mammary glands compared to PBS control", "setting": "[3]", "value": 2.9, "unit": "log10 units"},
      {"measurement": "Activity against intracellular S. aureus in human THP-1 monocytes", "setting": "[4]", "value": "could effectively target intracellular S. aureus"},
      {"measurement": "Activity against Staphylococci compared with plectasin", "setting": "Staphylococci", "value": "stronger activity against Staphylococci than plectasin"},
      {"measurement": "MIC against S. aureus E48", "setting": "[5]", "value": 2, "unit": "µg/mL"},
      {"measurement": "Time-kill, effect on S. aureus growth at 0.5×MIC", "setting": "S. aureus E48 [6]; 0.5×MIC", "value": "grew more slowly than those in the control"},
      {"measurement": "Time-kill, effect on S. aureus counts at 1×MIC", "setting": "S. aureus E48 [6]; 1×MIC", "value": "bacterial counts initially decreased, but increased after 8 h post-exposure"},
      {"measurement": "Time-kill, effect on S. aureus counts at 5×MIC", "setting": "S. aureus E48 [6]; 5×MIC, sampled 0-24 h, repeated three times", "value": "most significantly decreased S. aureus at 12 h after inoculation"},
      {"measurement": "Cell viability of mammary epithelial cells", "setting": "[7]", "value": "not affected"}
    ]}
  ]
}
